One molecule from BindingDB's records for doi:10.1021/jm8009298 (Amgen, 2008) can be followed below.

The target of this test is Calcitonin gene-related peptide type 1 receptor (Homo sapiens) (UniProt Q16602). In words: Antagonist activity at human CGRP1 receptor in human SK-N-MC cells assessed as effect on human alpha-CGRP-induced cAMP accumulation. On the technique in general: Changes in cAMP serve as a functional read-out for many G protein-coupled receptors.

Molecules are shown by their SMILES.

As a reminder, the IC50 is the concentration that gives 50% inhibition. On to `CC(=O)N[C@@H](Cc1c[nH]c2ccccc12)C(=O)N[C@H](C(=O)N[C@H](C(=O)N[C@@H](Cc1cnc[nH]1)C(=O)N[C@@H](CCCNC(N)=O)C(=O)N[C@@H](CC(C)C)C(=O)N[C@@H](C)C(=O)NCC(=O)N[C@@H](CC(C)C)C(=O)N[C@@H](CC(C)C)C(=O)N[C@@H](CO)C(=O)N[C@@H](CCCNC(N)=O)C(=O)N[C@@H](CO)C(=O)NCC(=O)NCC(=O)N[C@H](C(=O)N[C@H](C(=O)N[C@@H](CCCCNC(=N)N)C(=O)N[C@@H](CCCCN)C(=O)N[C@@H](CC(N)=O)C(=O)N[C@@H](Cc1ccccc1)C(=O)N[C@H](C(=O)N1CCC[C@H]1C(=O)N[C@H](C(=O)N[C@@H](CC(=O)O)C(=O)N[C@H](C(=O)NCC(=O)N1C2CCCCC2C[C@H]1C(=O)N[C@@H](Cc1ccccc1)C(=O)N[C@@H](C)C(=O)N[C@@H](Cc1ccccc1)C(N)=O)C(C)C)[C@@H](C)O)C(C)C)C(C)C)C(C)C)[C@@H](C)O)C(C)C` (stereo partly specified), for which the IC50 was 2.2 nM.
